Experimental data published in patent publication US8834930B2, “Pulmonary delivery of a fluoroquinolone” (Novartis AG, priority 2008, dated 2014).

Tests used:
[1] = background; cited from earlier work
[2] = Example 1

O=C(O)c1cn(C2CC2)c2cc(N3CCNCC3)c(F)cc2c1=O [ciprofloxacin]
pK2 [1]: 8.8
pK2 (amine group) [2]: 8.8
